Source: US7943618B2, “Btk protein kinase inhibitors” (Roche Palo Alto LLC, priority 2007, dated 2011)

The chains behind the UniProt entries cited, without tags or fusion partners.
UniProt Q06187, whole entry: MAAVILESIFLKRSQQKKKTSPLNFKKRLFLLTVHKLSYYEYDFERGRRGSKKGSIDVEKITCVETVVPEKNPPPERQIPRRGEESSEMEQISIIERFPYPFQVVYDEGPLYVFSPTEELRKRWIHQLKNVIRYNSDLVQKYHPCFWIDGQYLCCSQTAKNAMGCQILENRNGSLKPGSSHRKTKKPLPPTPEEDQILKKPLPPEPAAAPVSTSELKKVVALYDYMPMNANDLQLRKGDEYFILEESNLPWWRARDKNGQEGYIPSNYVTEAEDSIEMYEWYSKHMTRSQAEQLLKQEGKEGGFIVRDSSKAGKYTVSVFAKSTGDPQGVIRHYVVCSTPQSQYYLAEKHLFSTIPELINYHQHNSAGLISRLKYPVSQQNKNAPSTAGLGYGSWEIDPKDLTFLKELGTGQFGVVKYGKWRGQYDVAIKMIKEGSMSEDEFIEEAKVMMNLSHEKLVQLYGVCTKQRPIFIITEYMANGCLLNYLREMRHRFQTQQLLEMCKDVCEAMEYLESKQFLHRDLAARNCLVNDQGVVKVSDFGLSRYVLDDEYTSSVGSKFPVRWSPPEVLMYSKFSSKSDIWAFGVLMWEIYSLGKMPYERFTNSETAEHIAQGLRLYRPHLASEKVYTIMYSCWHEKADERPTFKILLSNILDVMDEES

Each compound was assayed against Btk enzyme (His-tagged, full-length) (Homo sapiens, UniProt Q06187) (assay: Bruton's Tyrosine Kinase (Btk) Inhibition Assay (33P filtration capture)). Settings: Bruton's tyrosine kinase Assay (Example 34); Table I pyridazinones; 100 μM ATP.
Format: biochemical

SMILES	IC50
Cc1c(NC(=O)c2ccc(C(C)(C)C)cc2)cccc1-c1cc(Nc2ccc(C(=O)N3CCC(O)CC3)cc2)c(=O)n(C)n1	0.045 µM
Cn1nc(-c2cccc(CC(=O)N3CCN(C(C)(C)C)CC3)c2)cc(Nc2ccc(C(=O)N3CCOCC3)cn2)c1=O	33.5 µM
Cn1nc(-c2cccc(CC(=O)N3CC(OC(C)(C)C)C3)c2)cc(Nc2ccc(C(=O)N3CCOCC3)cn2)c1=O	0.138 µM
